ChEMBL document CHEMBL5728091, “3-((hetero-)aryl)-alkyl-8-amino-2-oxo-l,3-diaza-spiro-[4.5]-decane derivatives” (2020)

By UniProt entry, the sequences of proteins in these tests, tags left out. Where a name states a change or a piece, a line headed by the entry shows the natural chain unless it says otherwise.
UniProt P41146: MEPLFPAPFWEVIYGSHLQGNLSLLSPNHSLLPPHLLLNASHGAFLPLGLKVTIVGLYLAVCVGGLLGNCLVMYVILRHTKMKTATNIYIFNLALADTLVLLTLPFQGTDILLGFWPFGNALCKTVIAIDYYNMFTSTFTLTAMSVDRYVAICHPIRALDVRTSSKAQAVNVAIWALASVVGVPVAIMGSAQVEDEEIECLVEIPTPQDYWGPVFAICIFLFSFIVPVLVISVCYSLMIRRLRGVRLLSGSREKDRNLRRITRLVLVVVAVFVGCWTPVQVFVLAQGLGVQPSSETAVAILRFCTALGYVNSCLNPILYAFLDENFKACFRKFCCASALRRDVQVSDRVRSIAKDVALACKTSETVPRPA
UniProt P35372, whole entry, looked up: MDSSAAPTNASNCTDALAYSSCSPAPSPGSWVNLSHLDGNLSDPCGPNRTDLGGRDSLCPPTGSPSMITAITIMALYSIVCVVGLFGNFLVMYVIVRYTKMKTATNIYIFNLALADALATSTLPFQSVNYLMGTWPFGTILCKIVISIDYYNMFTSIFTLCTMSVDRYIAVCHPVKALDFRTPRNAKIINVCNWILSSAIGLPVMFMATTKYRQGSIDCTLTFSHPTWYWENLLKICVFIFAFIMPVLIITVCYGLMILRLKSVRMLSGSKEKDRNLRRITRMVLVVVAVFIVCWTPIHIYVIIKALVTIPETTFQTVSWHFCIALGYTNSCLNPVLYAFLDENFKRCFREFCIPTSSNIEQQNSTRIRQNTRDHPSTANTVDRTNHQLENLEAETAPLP

Columns and labels:
[1] = biological target: Nociceptin receptor (Homo sapiens, UniProt P41146); test: Receptor Binding Assay: The hNOP receptor binding assay was performed as homogeneous SPA-assay (scintillation proximity assay) using the assay buffer 50 mM TRIS-HCl. 10 mM MgCl2. 1 mM EDTA (pH 7.4). The final assay volume (250 ul/well) included 0.5 nM of [leucyl-3H]nociceptin as ligand (PerkinElmer Life Sciences. Inc. Boston. Mass. USA). and either test compound in dilution series or 1 uM unlabell
[2] = biological target: Mu-type opioid receptor (Homo sapiens, UniProt P35372); test: Receptor Binding Assay: Mu-Opioid Peptide (hMOP): The hMOP receptor binding assay was performed as homogeneous SPA-assay (scintillation proximity assay) using the assay buffer 50 mM TRIS-HCl (pH 7.4) supplemented with 0.052 mg/ml bovine serum albumin (Sigma-Aldrich Co. St. Louis. Mo.). The final assay volume (250 μl/well) included 1 nM of [N-allyl-2.3-3H]naloxone as ligand (PerkinElmer Life Scienc

| SMILES | Ki [1] | Ki [2] |
| --- | --- | --- |
| CN(C)[C@]1(c2ccccc2)CC[C@]2(CC1)CN(CCn1ccnc1)C(=O)N2 | 2000 nM | 255 nM |
| CCN(C)[C@]1(c2ccccc2)CC[C@]2(CC1)CN(Cc1cccc(C#N)c1)C(=O)N2CC1CCC1 | 1420 nM | 12 nM |
| COc1ccc(CN2C[C@]3(CC[C@](c4ccccc4)(N(C)C)CC3)N(CC(C)(C)OC)C2=O)cc1 | 920 nM | 49.5 nM |
| CCN(C)[C@]1(c2ccccc2)CC[C@]2(CC1)CN(Cc1cccc(OC)c1)C(=O)N2CC1CCC1 | 2150 nM | 50 nM |
| COCCOCCOCCOCCOCCOCCOc1cccc(CN2C[C@]3(CC[C@](c4ccccc4)(N(C)C)CC3)N(CC3CCC3)C2=O)c1 | 305 nM | 15.5 nM |
| CCCN1C(=O)N(Cc2ccc(OC)cc2)C[C@]12CC[C@](c1ccccc1)(N(C)C)CC2 | 575 nM | 11.2 nM |
| COc1ccc(CN2C[C@]3(CC[C@@](N)(c4ccccc4)CC3)N(CC3(O)CCC3)C2=O)cc1 | 3840 nM |  |
| COc1ccccc1CN1C[C@]2(CC[C@](c3ccccc3)(N(C)C)CC2)N(Cc2ccc(C#N)cc2)C1=O | 1050 nM | 390 nM |
| COc1ccc(CN2C[C@]3(CC[C@](c4ccccc4)(N(C)C)CC3)N(CC(=O)O)C2=O)cc1 |  | 530 nM |
| CCCN(C)C(=O)CN1C(=O)N(Cc2ccc(OC)cc2)C[C@]12CC[C@](c1ccccc1)(N(C)C)CC2 | 650 nM | 27 nM |
| CCN(C)[C@]1(c2ccccc2)CC[C@]2(CC1)CN(Cc1ccc(OC)cc1)C(=O)N2CC1CCC1 | 3180 nM | 106 nM |
| COc1ccc(CN2C[C@]3(CC[C@](c4cccc(O)c4)(N(C)C)CC3)N(CC3CCC3)C2=O)cc1 | 66.8 nM | 70.8 nM |
| COc1ccc(CN2C[C@]3(CC[C@](c4ccccc4)(N(C)C)CC3)N(CC(C)(C)O)C2=O)cc1 | 1450 nM | 48 nM |
| CCCCCCN1C(=O)N(Cc2ccc(OC)cc2)C[C@]12CC[C@](c1ccccc1)(N(C)C)CC2 | 340 nM | 43.5 nM |
| COc1ccc(CN2C[C@]3(CC[C@](c4ccccc4)(N(C)C)CC3)N(CC(=O)NCC#N)C2=O)cc1 | 5480 nM | 330 nM |
| CN(C)[C@]1(c2ccccc2)CC[C@]2(CC1)CN(Cc1cn(CCO)nn1)C(=O)N2CC1(O)CCC1 | 130 nM | 22 nM |
| CN[C@]1(c2ccccc2)CC[C@]2(CC1)CN(Cc1cn(CCO)nn1)C(=O)N2CC1(O)CCC1 | 330 nM | 130 nM |
| COc1ccc(CN2C[C@]3(CC[C@](c4ccccc4)(N(C)C)CC3)N(CCO)C2=O)cc1 | 4020 nM | 490 nM |

| SMILES | Ki [1] | Ki [2] |
| --- | --- | --- |
| CCCNC(=O)CN1C(=O)N(Cc2ccc(OC)cc2)C[C@]12CC[C@](c1ccccc1)(N(C)C)CC2 | 1570 nM | 24 nM |
| CN[C@]1(c2ccccc2)CC[C@]2(CC1)CN(Cc1cccnc1)C(=O)N2CC1CCC1 | 140 nM | 4.6 nM |
| COc1ccc(CN2C[C@]3(CC[C@](c4ccccc4)(N(C)C)CC3)N(C(=O)OCc3ccccc3)C2=O)cc1 | 250 nM | 160 nM |
| CN(C)[C@]1(c2ccccc2)CC[C@]2(CC1)CN(CCc1cncnc1)C(=O)N2 |  | 240 nM |
| CN[C@]1(c2ccccc2)CC[C@]2(CC1)CN(Cc1cn(CCO)nn1)C(=O)N2CC1CCC1 | 82.5 nM | 31 nM |
| COc1ccc(CN2C[C@]3(CC[C@](c4ccccc4)(N(C)C)CC3)N(CCS(C)(=O)=O)C2=O)cc1 | 1680 nM | 159 nM |
| CN(C)[C@]1(c2ccccc2)CC[C@]2(CC1)CN(Cc1cccnc1)C(=O)N2 |  | 250 nM |
| COc1ccc(CN2C[C@]3(CC[C@](c4cccc(F)c4)(N(C)C)CC3)N(CC3CCC3)C2=O)cc1 |  | 88.5 nM |
| CCN1C(=O)N(Cc2ccccc2)C[C@]12CC[C@](c1ccccc1)(N(C)C)CC2 | 2480 nM | 720 nM |
| COc1ccc(CN2C[C@]3(CC[C@](c4ccccc4)(N(C)C)CC3)N(CCCOC(F)(F)F)C2=O)cc1 | 160 nM | 19.5 nM |
| CN[C@]1(c2ccccc2)CC[C@]2(CC1)CN(Cc1cccc(OC)c1)C(=O)N2CC1CCC1 | 255 nM | 11 nM |
| COc1ccc(CN2C[C@]3(CC[C@](c4ccccc4)(N(C)C)CC3)N(CC3(O)CCCCC3)C2=O)cc1 | 5880 nM | 18.5 nM |
| COc1ccc(CN2C[C@]3(CC[C@](c4ccccc4)(N(C)C)CC3)N(C[C@@H](C)O)C2=O)cc1 | 995 nM | 195 nM |
| COc1ccc(CN2C[C@]3(CC[C@](c4ccccc4)(N(C)C)CC3)N(CCC(C)(C)O)C2=O)cc1 | 1700 nM | 57 nM |
| COc1ccc(CN2C[C@]3(CC[C@](c4ccccc4)(N(C)C)CC3)N(CC(=O)NC3(C#N)CC3)C2=O)cc1 | 2000 nM | 41 nM |
| CNC(=O)CCN1C(=O)N(Cc2ccc(OC)cc2)C[C@]12CC[C@](c1ccccc1)(N(C)C)CC2 | 3460 nM | 325 nM |
| COc1ccc(CN2C[C@]3(CC[C@](c4ccccc4)(N(C)C)CC3)N(C[C@H](C)O)C2=O)cc1 | 90 nM |  |
| COc1ccc(CN2C[C@]3(CC[C@](c4ccccc4)(N(C)CCO)CC3)N(CC3CCC3)C2=O)cc1 | 3440 nM | 200 nM |
